The experiment concerns DPP-4. The conditions noted are these: delayed treatment 30 mg/kg daily p.o. day 7 to 45; brain (striatum), day 45.

SMILES strings stand for the structures.

Turning to `N[C@@H](CC(=O)N1CCn2c(nnc2C(F)(F)F)C1)Cc1cc(F)c(F)cc1F` [Sitagliptin], the “Brain DPP-4 activity inhibition” value is on record as more than 20%.

The record behind these values is article PMC11336009, “DPP-4 inhibitors sitagliptin and PF-00734,200 mitigate dopaminergic neurodegeneration, neuroinflammation and behavioral impairment in the rat 6-OHDA model of Parkinson’s disease” (GeroScience, 2024).
